Target: Mu-type opioid receptor (Rattus norvegicus, UniProt P33535)
Test: The compound was tested for binding affinity towards rat Opioid receptor mu 1 by displacing [3H]DAMGO.
In short: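 Membranes from whole rat brain minus cerebellum, prepared by sucrose homogenization, differential centrifugation and hypotonic lysis, in 50 mM Tris-HCl pH 7.4. [3H]DAMGO displaced by competitor at 25 °C for 30 min in Tris-HCl/MnCl2 buffer with bacitracin, phosphoramidon and BSA. Unlabeled DAMGO as standard. Filtration through PEI-soaked GF-C filters. Triplicates, three experiments, mean ± SEM.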

Protein sequences, listed by entry. Tags and fused reporters are not part of them.
UniProt P33535, whole entry: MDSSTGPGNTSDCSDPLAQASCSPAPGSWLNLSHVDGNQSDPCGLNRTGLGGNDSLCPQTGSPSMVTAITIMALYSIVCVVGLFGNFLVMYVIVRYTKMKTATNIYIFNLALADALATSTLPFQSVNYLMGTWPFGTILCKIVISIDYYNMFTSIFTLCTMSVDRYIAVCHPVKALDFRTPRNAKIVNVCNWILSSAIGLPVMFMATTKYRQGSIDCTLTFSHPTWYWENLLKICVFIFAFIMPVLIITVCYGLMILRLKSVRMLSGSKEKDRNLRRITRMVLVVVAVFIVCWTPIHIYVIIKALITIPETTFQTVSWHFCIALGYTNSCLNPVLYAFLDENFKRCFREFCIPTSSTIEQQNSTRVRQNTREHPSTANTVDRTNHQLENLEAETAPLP

C[C@@H](NC(=O)[C@@H](N)Cc1ccc(O)cc1)C(=O)NCC(=O)N(C)[C@@H](Cc1ccccc1)C(=O)NCCO [DAMGO]
IC50: 3.5 nM
